# Bioassay records from PubChem BioAssay.
# KDM4E inh – inhibitors of human JMJD2E histone demethylase | Potency, µM (series often up to 57.1 µM), for the others: at the top dose activity change, negative = inhibition, most hits filed as inhibitors | JMJD2E catalytic domain, FDH-coupled NADH fluorescence (FDH is formaldehyde dehydrogenase) | 230,000 compounds, 1.6% hits | B2RXH2 | AID 2147; active means well fitted inhibition curve with a large enough effect, not every such curve was filed as active; inconclusive means small, poorly fitted or top-dose-only effect, or another doubt; inactive means no such curve, though single readings can be large or run the other way;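 further: potency means the concentration at half of the fitted maximal effect; 0% = wells with enzyme and -100% = buffer wells without enzyme; nearly all actives have a fitted effect of over 50% in size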
# ALDH1A1 block – blocks purified human ALDH1A1 activity. AID 1030. 220,000 compounds, 7.3% hits. Purified ALDH1A1, NADH fluorescence, propionaldehyde substrate. Potency, µM (series often up to 75.3 µM), for the others: top-dose activity, negative = inhibition, most hits filed as inhibitors; active means well fitted inhibition curve with a large enough effect, not every such curve was filed as active; inconclusive means small, poorly fitted or top-dose-only effect, or another doubt; inactive means no such curve, though single readings can be large or run the other way;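 further: potency means the concentration at half of the fitted maximal effect; plate controls were no enzyme wells and a reference inhibitor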
# Lamin A splicing – changes lamin A minigene splicing in HeLa cells. HeLa LMNA splicing GFP/RFP minigene ratio, 48 h. Potency, µM (highest dose often 46.1 µM), without a hit: top-dose ratio change, negative = inhibition, usual class: inhibitors. 200,000 compounds, 0.01% hits. AID 1487; active means well fitted inhibition curve with a large enough effect in the signal ratio, with a control signal flat, not every such curve was filed as active; inconclusive means small, poorly fitted or top-dose-only effect, or effect the other way, or a change in a side signal; the % refers to the signal ratio; further: potency means the concentration at half of the fitted maximal effect; on the % scale 0 is the no-effect control and ±100 the full control effect
#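 S3 HeLa cells stably expressing lamin A-EGFP splicing minigene plus DsRed2, 600 cells/well, 48 h compound exposure at 37C. Laser-scanning cytometry; analysed as GFP (500-530 nm)/RFP (575-640 nm) total intensity ratio; 0.5% DMSO vehicle.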
# Sfp inh – inhibitors of Bacillus subtilis Sfp phosphopantetheinyl transferase. Q9F4F7. Biochemical Sfp PPTase activity, qHTS. Potency, µM, inactives show max response, negative = inhibition, most hits filed as inhibitors. 3.5% of 310,000 active. AID 1490; active = well fitted inhibition curve with a large enough effect; inconclusive = small, poorly fitted or top-dose-only effect, or another doubt; inactive = no such curve, though single readings can be large or run the other way;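 also: the enzyme is Sfp with the accession as filed and its product quenches rhodamine fluorescence; potency is read from the fitted curve at half-maximal effect; 0% = enzyme reaction without inhibitor and -100% = no enzyme wells; top concentration of the series not given in the record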
#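 Buffer: 50 mM Hepes-Na pH 7.6, 10 mM MgCl2, 0.01% Nonidet P-40, 0.01% BSA. Enzyme 15 nM, pre-exposed to compound 15 min; substrates then added and fluorescence change tracked over 30 min.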
# G9a block – inhibitors of human histone lysine methyltransferase G9a | G9a H3K9 monomethylation, AlphaScreen, 2 h | Potency, µM (titrated, usually from 102 µM), for the others: at the highest dose activity, negative = inhibition, actives largely listed as inhibitors | Q96KQ7 | 350,000 compounds, 8.8% hits; further: potency means the concentration at half of the fitted maximal effect; on the % scale 0 is the no-effect control and ±100 the full control effect; nearly all actives have a fitted effect of over 75% in size
#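 G9a (20 nM) was preincubated 15 min with compound, then reacted 2 h at room temperature with 500 nM biotin-H3K9 peptide and 20 µM SAM. Monomethyl-H3K9 detected by AlphaScreen using anti-H3K9me1 antibody.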
# miR-21 FLuc – miR-21 reporter, rising signal. HeLa miR-21 FLuc reporter, luciferase, 48 h. Potency, µM (highest dose often 38.3 µM), for the others: at the highest dose reporter change, positive = more light. 340,000 tested, under 10 active. AID 2288; active = well fitted rising curve with a large enough effect; inconclusive = small, poorly fitted or top-dose-only effect; inactive = no such curve, though single readings can be large or run the other way;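 further: % of control where 0% means no effect; miR-21 action dims this reporter so a rising signal means less miR-21 action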
#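 Compounds were titrated across several concentrations (up to approximately 40 uM) and incubated 48 hours with HeLa miR-21-FLuc reporter cells (miR-21 target sequence downstream of FLuc, endogenous miR-21). Readout was firefly luciferase luminescence after lytic detection reagent.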
# * = called active by the depositor; ? = inconclusive; · = no result given; [ ] = dose if it differs, or a comment. Most compounds without a hit are left out; they make up all but 13% or so of the library. Unless noted, the call rests on the fitted dose curve; in most records, active means well fitted curve in the direction sought with a large enough effect; inconclusive means small, poorly fitted or top-dose-only effect, or another doubt; inactive means no such curve, though single readings can be large; an effect the other way counts as inactive or inconclusive.
1	N#C/C(=C\c1ccc(-c2ccccc2[N+](=O)[O-])o1)C(=O)Nc1nc(-c2cccs2)cs1
2	N#C/C(=C\c1ccc(-c2ccc([N+](=O)[O-])cc2)o1)C(=O)Nc1nc(-c2cccs2)cs1
3	Cc1cc(C)c2c3c(sc2n1)C1(CCSCC1)C(C#N)=C(N)O3
4	Cc1cc(C)c2c(N)c(C(=O)C(C)(C)C)sc2n1
5	O=C1CC(NCC2CCCO2)C(=O)N1c1ccc(Cl)cc1 (stereo not given)
6	Cc1ccc(N2C(=O)CC(NCC3CCCO3)C2=O)cc1 (stereo not given)
7	O=C(NCC1CCCO1)C1CC(=O)N(c2ccc(F)c(Cl)c2)C1 (stereo not given)
8	CCOc1ccc(N2C(=O)CC(NCC3CCCO3)C2=O)cc1 (stereo not given)

Compound | 1 | 2 | 3 | 4 | 5 | 6 | 7 | 8
KDM4E inh | -1.6% | 0.9% | ? | 19.3% | -5.8% | -10.8% | -1.7% | 8.2%
ALDH1A1 block | 1.78µM* | · | 25.1µM* | ? | ? | 20µM* | 5.1% | 6.6%
Lamin A splicing | ? | · | -4.5% | · | 16.9%[46 µM] | 22.1%[46 µM] | -0.7% | ?
Sfp inh | -14.4% | -19.7% | -8.8% | 15.0% | -8.0% | -1.0% | 6.6% | 22.6%
G9a block | ? | 3.5%[12.7 µM] | ? | -3.0% | 44.7µM* | -27.8% | 2.5% | ?
miR-21 FLuc | -4.9% | -2.1% | -6.4% | -5.7% | 3.5% | -1.9% | -1.4% | 0.1%

9	O=C(O)COC(=O)Cc1ccccc1Nc1c(Cl)cccc1Cl
10	Cc1ccc(S(=O)(=O)Nc2ccc3c(c2)c(C(=O)OC(C)C)c(C)n3S(=O)(=O)c2ccc(C)cc2)cc1
11	COCCCN(C(=O)Nc1ccc(C)c(C)c1)C(C)c1ccccn1 (stereo not given)
12	COCCCN(C(=S)Nc1ccc(C)cc1Cl)C(C)c1ccncc1 (stereo not given)
13	Cc1ccc(NC(=S)N(CCC(C)C)C(C)c2ccncc2)c(Cl)c1 (stereo not given)
14	COCCCN(C(=S)Nc1cc(Cl)cc(Cl)c1)C(C)c1ccncc1 (stereo not given)
15	COCCCN(C(=S)Nc1cc(Cl)cc(Cl)c1)C(C)c1ccccn1 (stereo not given)
16	CN(C)c1oc(/C=C/c2cccs2)nc1S(=O)(=O)c1ccccc1

Compound | 9 | 10 | 11 | 12 | 13 | 14 | 15 | 16
KDM4E inh | 5.6%[25.5 µM] | · | -3.1% | -1.4% | 7.0% | -4.1% | -2.0% | ·
ALDH1A1 block | -6.0%[20.9 µM] | · | 0.7% | 5.3% | · | -8.0% | · | ·
Lamin A splicing | ? | · | 0.2% | ? | · | ? | · | ·
Sfp inh | 15.1% | · | 6.2% | -10.2% | 56.2µM* | 25.1µM* | 25.1µM* | 5.6%
G9a block | 11.6%[12.7 µM] | -32.6%[59 µM] | ? | 21.6%[59 µM] | -0.3%[12.7 µM] | ? | ? | 12.0%
miR-21 FLuc | -3.4% | 10.1% | -16.8% | -3.9% | -6.5% | ? | 29.4% | -4.9%

17	Cc1nn(C(C)C(=O)NNC(=S)Nc2ccc(Cl)cc2)c(C)c1[N+](=O)[O-] (stereo not given)
18	Cc1nn(CC(=O)NNC(=S)Nc2ccccc2)c(C)c1[N+](=O)[O-]
19	Cc1nn(CCC(=O)NNC(=S)Nc2ccc(Cl)cc2)c(C)c1[N+](=O)[O-]
20	Cc1cccc(NC(=S)NNC(=O)CCn2nc(C)c([N+](=O)[O-])c2C)c1
21	Cc1cnn(CCC(=O)NNC(=S)Nc2ccc(F)cc2)c1
22	Cc1nn(CCC(=O)NNC(=S)Nc2cccc(Cl)c2)c(C)c1[N+](=O)[O-]
23	Cc1cnn(CCC(=O)NNC(=S)Nc2cccc(Cl)c2)c1
24	Cc1nn(C(C)C(=O)Nc2ccc3c(c2)OCO3)c(C)c1[N+](=O)[O-] (stereo not given)

Compound | 17 | 18 | 19 | 20 | 21 | 22 | 23 | 24
KDM4E inh | 12.2% | 1.9% | 1.0% | 7.1% | -5.7% | ? | 9.2% | -4.4%
ALDH1A1 block | ? | -13.0% | 22.4µM* | ? | 4.7% | ? | ? | 3.0%
Lamin A splicing | -5.0% | -12.2% | -9.4% | 0.6% | 1.1% | -1.4% | 1.7% | ·
Sfp inh | 26.4% | 16.0% | 2.9% | -3.2% | 14.4% | -6.9% | 18.9% | 6.6%
G9a block | 8.91µM* | ? | 10µM* | ? | -1.5% | 8.91µM* | 50.1µM* | ·
miR-21 FLuc | -4.1% | -4.8% | -0.4% | -16.8% | -3.2% | -17.1% | -1.4% | -11.0%

25	Cc1nc(N)sc1N=Nc1ccc(F)cc1
26	FC(F)(F)c1ccc(Cl)c(-n2c(-c3cc(-c4ccco4)[nH]n3)n[nH]c2=S)c1
27	FC(F)(F)c1ccc(Cl)c(-n2c(-c3ccco3)n[nH]c2=S)c1
28	FC(F)(F)c1ccc(Cl)c(-n2c(-c3cc(C4CC4)[nH]n3)n[nH]c2=S)c1
29	COc1cc(-c2n[nH]c(=S)n2-c2cc(C(F)(F)F)ccc2Cl)cc(OC)c1OC
30	COc1ccccc1NC(=O)C1=C(C)Nc2nc(SCC(=O)c3ccc(C)cc3)nn2C1c1ccc(F)cc1 (stereo not given)
31	COc1ccc(N2CCN(S(=O)(=O)CCNC(=O)c3ccc(C(F)(F)F)cc3)CC2)cc1
32	CCOc1ccc(N2C(=O)CN(O)C=C3N=c4ccccc4=C32)cc1

Compound | 25 | 26 | 27 | 28 | 29 | 30 | 31 | 32
KDM4E inh | -8.5% | -15.9% | · | 0.7% | -2.7% | · | · | 3.4%
ALDH1A1 block | -4.1% | · | · | ? | 6.3% | · | · | 10µM*
Lamin A splicing | 16.3% | · | · | -11.6%[46 µM] | ? | 14.2%[46 µM] | -2.8%[46 µM] | ·
Sfp inh | -27.6% | -18.4% | 4.2% | -21.8% | 9.8% | · | · | 4.47µM*
G9a block | 44.7µM* | 15.8µM* | 10µM* | 8.91µM* | ? | 2.6%[59 µM] | 10.2%[59 µM] | -47.7%
miR-21 FLuc | -71.9% | 3.3% | -0.3% | -2.2% | -2.8% | -2.3% | -1.7% | -4.4%

33	CCN(CC)CCOC(=O)c1cccnc1
34	COC(=O)CSc1nc(-c2cccs2)ccc1C#N
35	CCN(CC)C(=O)CSc1nc(-c2cccs2)cc(-c2cccs2)c1C#N
36	CN1CCN(C(=O)CSc2nc(-c3cccs3)cc(-c3cccs3)c2C#N)CC1
37	N#Cc1c(-c2ccc(F)cc2)cc(-c2cccs2)nc1SCC(=O)O
38	COC(=O)CSc1nc2ccccc2nc1SCC(=O)OC
39	CCN(CC)C(=O)CSc1nc(N)c(C#N)c(-c2cccs2)c1C#N
40	CC(NC(=O)c1cccc(S(=O)(=O)N2CCN(Cc3ccccc3)CC2)c1)c1ccc(Br)cc1 (stereo not given)

Compound | 33 | 34 | 35 | 36 | 37 | 38 | 39 | 40
KDM4E inh | · | ? | -2.4% | ? | · | -14.6% | ? | ·
ALDH1A1 block | · | ? | ? | ? | · | ? | ? | ·
Lamin A splicing | · | -3.1% | -6.5% | ? | · | -3.1% | -13.9% | ·
Sfp inh | 14.6% | 39.8µM* | 7.94µM* | -29.8% | 1.8% | 50.1µM* | 4.6% | 2.2%
G9a block | -25.6%[12.7 µM] | 31.6µM* | 3.98µM* | 39.8µM* | 15.9% | ? | 14.2%[59 µM] | ·
miR-21 FLuc | · | -55.7% | 2.0% | -23.5% | -14.8% | -3.7% | -16.3% | 9.4%

# The list goes on, overlapping the part above by 3 compounds.
38	COC(=O)CSc1nc2ccccc2nc1SCC(=O)OC
39	CCN(CC)C(=O)CSc1nc(N)c(C#N)c(-c2cccs2)c1C#N
40	CC(NC(=O)c1cccc(S(=O)(=O)N2CCN(Cc3ccccc3)CC2)c1)c1ccc(Br)cc1 (stereo not given)
41	Cc1cccn2c3c(c(=O)nc12)C(c1ccc(F)cc1)CC(=O)N3 (stereo not given)
42	O=C(CSc1nc(=O)n(Cc2ccco2)c2c1CCC2)NCc1ccccc1Cl
43	CCOc1ccc(C(=O)Nc2cc(-c3ccccc3)no2)cc1
44	CCC1CN(C(=O)C2CCN(S(=O)(=O)c3c(C)noc3/C=C/c3ccccc3F)CC2)c2cc(Cl)ccc2O1 (stereo not given)

Compound | 38 | 39 | 40 | 41 | 42 | 43 | 44
KDM4E inh | -14.6% | ? | · | · | · | · | ·
ALDH1A1 block | ? | ? | · | · | · | · | ·
Lamin A splicing | -3.1% | -13.9% | · | -16.4%[46 µM] | ? | · | 5.8%[46 µM]
Sfp inh | 50.1µM* | 4.6% | 2.2% | · | · | · | ·
G9a block | ? | 14.2%[59 µM] | · | 2.9%[59 µM] | -8.0%[59 µM] | -2.8%[59 µM] | -3.2%[59 µM]
miR-21 FLuc | -3.7% | -16.3% | 9.4% | -7.1% | 1.2% | -41.2% | -8.3%
